This note sets out measurements from PubChem BioAssay AID1136 (Sanford-Burnham Center for Chemical Genomics, 2008).

Sequences of proteins named here, by UniProt entry; tags and fusion partners are left off. A change or cut given only in a name is not applied to a line headed by its entry.
UniProt P05186: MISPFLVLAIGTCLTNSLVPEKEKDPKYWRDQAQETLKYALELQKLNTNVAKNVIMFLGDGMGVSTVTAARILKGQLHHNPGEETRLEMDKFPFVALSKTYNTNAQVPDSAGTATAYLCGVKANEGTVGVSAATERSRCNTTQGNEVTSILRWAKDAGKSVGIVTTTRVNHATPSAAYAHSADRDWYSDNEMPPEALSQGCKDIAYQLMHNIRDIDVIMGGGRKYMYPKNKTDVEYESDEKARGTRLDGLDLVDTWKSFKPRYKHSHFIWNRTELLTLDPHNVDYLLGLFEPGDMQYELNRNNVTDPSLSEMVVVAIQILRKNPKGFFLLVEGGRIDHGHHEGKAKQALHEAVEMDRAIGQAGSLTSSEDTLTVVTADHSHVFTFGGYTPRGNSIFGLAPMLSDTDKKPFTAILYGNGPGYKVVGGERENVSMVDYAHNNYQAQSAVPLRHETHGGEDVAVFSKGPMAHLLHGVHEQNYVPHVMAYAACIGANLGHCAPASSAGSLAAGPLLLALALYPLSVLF

Each structure is given as a SMILES string. This is one part of the list. Active and inactive are the calls of the source.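 How the source made its calls: active means activation factor at least 2 at 20 µM; inactive means the rest.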

For this assay, the target named is Alkaline phosphatase, tissue-nonspecific isozyme (Homo sapiens) (UniProt P05186). Put plainly: activation of human TNAP, high DEA acceptor – biochemical, luminescence, uHTS, primary screen (AID 1136). To be noted: purified TNAP, CDP-star luminescence, 1 M DEA, 30 min; at 20 µM; stronger effect = higher value; 0 = EDTA background, 1 = DMSO-only activity.
As to `Cc1ccc(NCCc2c([N+](=O)[O-])cc([N+](=O)[O-])cc2[N+](=O)[O-])cc1`, the activation factor was inactive: 0.8.

Regarding `CCOP1(=S)c2c(C)nn(CCC#N)c2N=C(c2ccccc2F)N1C` (stereo not drawn), the activation factor was inactive: 1.1.

For the compound `O=[N+]([O-])c1ccc2c(c1)nnn2O`, the activation factor was inactive: 1.1.

As for `CN(C)C1(CNC(=O)c2ccc(S(C)(=O)=O)cc2)CCCCC1`, the activation factor is inactive: 1.1.

As for `CC1CCC(C(C)C)C(OP(=O)(Nc2ccccn2)c2ccccc2)C1` (stereo not drawn), the activation factor is inactive: 1.1.

Consider `O=P1(Nc2ccc(Br)cn2)COc2ccccc2OC1`, for which the activation factor was inactive: 1.1.

As for `CN(C(=O)Cc1ccc(Cl)c(Cl)c1)[C@@H]1CCCC[C@H]1N1CCCC1`, the activation factor was inactive: 1.1.

`COP1(=S)c2c(C)nn(CCC#N)c2N=C(c2ccc(F)cc2)N1C` (stereo not drawn): the activation factor was inactive: 1.1.

Take `CCC(C)N(CC(C)C)C(=S)SC(NC(C)=O)C(Cl)(Cl)Cl` (stereo not drawn): the activation factor was inactive: 1.1.

In the case of `O=[N+]([O-])c1cc([N+](=O)[O-])c(-c2ccn[nH]2)s1`, the activation factor is inactive: 0.9.

On to `COc1ccc2nc(NP(=O)(c3ccccc3)c3ccccc3)sc2c1`, for which the activation factor is inactive: 1.1.

On to `O=C(OC1CN2CCC1CC2)C12CC3CC(CC(C3)C1)C2` (stereo not drawn), for which the activation factor was inactive: 1.1.

For `O=[N+]([O-])c1cc([N+](=O)[O-])c(CCNc2ccccc2)c([N+](=O)[O-])c1`, the activation factor is inactive: 0.9.

Take `CCc1nc2c(n1)c1c(non1O)c1c2no[n+]1[O-]`: the activation factor was inactive: 1.1.

Consider `CC1CCN(C(=O)Oc2c(Cl)cc(Cl)c3cccnc23)CC1`, for which the activation factor is inactive: 1.1.

With `CC(C)=N/N=C(\N)N[N+](=O)[O-]`, the activation factor was inactive: 1.1.

Consider `C(Cc1nn[nH]n1)Cc1nn[nH]n1`, for which the activation factor is inactive: 1.1.

In the case of `O=c1c2cc([N+](=O)[O-])ccc2[nH]c2c([N+](=O)[O-])cc([N+](=O)[O-])cc12`, the activation factor was inactive: 0.7.
